# This is a selection; strong and weak results do not stand in their true shares. Activity calls are given as the source filed them. Cut-off read from the data, not from the text of the source: active = activation above about 47%; inactive = the rest.
# Protein sequences, listed by entry. Tags and fused reporters are not part of them.
# UniProt P35869, whole entry: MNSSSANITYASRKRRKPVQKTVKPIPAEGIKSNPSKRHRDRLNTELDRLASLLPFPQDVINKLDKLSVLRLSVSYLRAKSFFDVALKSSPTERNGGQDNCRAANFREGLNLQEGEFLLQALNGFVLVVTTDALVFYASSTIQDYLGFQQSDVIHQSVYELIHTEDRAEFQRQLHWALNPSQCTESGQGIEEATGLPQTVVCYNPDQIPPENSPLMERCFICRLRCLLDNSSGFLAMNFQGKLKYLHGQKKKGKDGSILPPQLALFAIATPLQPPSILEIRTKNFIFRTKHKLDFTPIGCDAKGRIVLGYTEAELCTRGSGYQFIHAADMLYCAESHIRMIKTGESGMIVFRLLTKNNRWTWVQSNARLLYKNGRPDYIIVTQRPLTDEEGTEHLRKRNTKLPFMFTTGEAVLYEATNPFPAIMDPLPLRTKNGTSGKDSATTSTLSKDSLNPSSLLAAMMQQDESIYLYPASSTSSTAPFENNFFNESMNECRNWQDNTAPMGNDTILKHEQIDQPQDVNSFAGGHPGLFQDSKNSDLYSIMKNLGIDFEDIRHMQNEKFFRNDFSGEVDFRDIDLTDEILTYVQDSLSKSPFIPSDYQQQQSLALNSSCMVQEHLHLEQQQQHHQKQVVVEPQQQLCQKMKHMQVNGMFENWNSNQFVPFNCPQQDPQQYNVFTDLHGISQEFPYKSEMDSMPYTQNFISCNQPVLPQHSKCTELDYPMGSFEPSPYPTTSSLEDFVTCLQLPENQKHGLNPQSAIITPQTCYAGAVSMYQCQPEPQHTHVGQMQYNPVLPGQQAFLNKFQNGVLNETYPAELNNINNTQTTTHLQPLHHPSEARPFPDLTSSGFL
# Biological target: Aryl hydrocarbon receptor (Homo sapiens) (UniProt P35869)
# Assay: AHR activators, primary screen, cell-based, luminescence, luciferase reporter, human (AID 2796);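 note: 0% = vehicle wells and 100% = reference agonist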
# Settings: AHR-responsive luciferase reporter cells, at 5 µM, stronger effect = higher value
row,SMILES,activation
1,Fc1ccccc1NC1CCN(Cc2ccccc2)CC1,inactive: 2.12%
2,Cc1ccc(C(=O)NCC2(N3CCCCC3)CCCCC2)o1,inactive: -0.5%
3,COc1cc(OC)cc(C(=O)NCC2(N3CCCCC3)CCCCC2)c1,inactive: 9.34%
4,CN(C)c1ccc(C(=O)NCC2(N3CCCCC3)CCCCC2)cc1,inactive: 3.53%
5,O=C(NCC1(N2CCCCC2)CCCCC1)c1ccco1,inactive: -1.72%
6,CCN1CCC(Nc2cccc(F)c2)CC1,inactive: -3.41%
7,O=C(O)C1(Nc2ccccc2)CCN(Cc2ccccc2)CC1,inactive: 0.69%
8,CC(C)(C)OC(=O)N1CCC(Nc2ccccc2)CC1,inactive: 0.33%
9,CCCOc1ccc(C(=O)NCC2(N(C)C)CCCCC2)cc1,inactive: 1.54%
10,CN1CCC(Nc2ccc(F)c(Cl)c2)CC1,inactive: -1.83%
11,CCOc1ncccc1C(=O)NCC1(N2CCOCC2)CCCCC1,inactive: 0.26%
12,CN1CCC(Nc2ccc(Cl)cc2)CC1,inactive: 0.73%
13,CCCOc1ccc(C)cc1CN(CCCl)CCCl,inactive: 0.14%
14,COc1cc(OC)cc(C(=O)NCC2(N3CCOCC3)CCCCC2)c1,inactive: 5.7%
15,COc1cccc(C(=O)N(c2cc(C)cc(C)c2)C2CCN(C(=O)OC(C)(C)C)CC2)c1,inactive: 1.23%
16,CCC(CO)(C(=O)OC1CN2CCC1CC2)c1ccccc1 (stereo not drawn),inactive: -0.3%
17,COc1ccc(C(=O)NCC2(N3CCOCC3)CCCCC2)cc1OC,inactive: 5.12%
18,COc1cc(C(=O)NCC2(N3CCOCC3)CCCCC2)cc(OC)c1C,inactive: 5.07%
19,O=C(NCC1(N2CCOCC2)CCCCC1)c1cc(Br)ccc1Cl,inactive: -0.68%
20,O=C(OC1CN2CCC1CC2)C1c2ccccc2C=Cc2ccccc21 (stereo not drawn),inactive: 0.82%
21,CCc1cc(C(=O)NCC2(N3CCCCC3)CCCCC2)sc1C,inactive: 3.43%

row,SMILES,activation
1,CCOC(=O)N1CCC(Nc2ccc(C)cc2)CC1,inactive: -1.46%
2,N/C(=N\O)c1c(N)no[n+]1[O-],inactive: 8.15%
3,N#Cc1ccc(C(=O)NCC2(N3CCCCC3)CCCCC2)cc1,inactive: -0.76%
4,CC(C)(C)OC(=O)N1CCC(N(C(=O)c2ccccc2)c2ccc(Cl)cc2)CC1,inactive: 1.08%
5,CN(C)C1(CNC(=O)c2cccc(C#N)c2)CCCCC1,inactive: 0.19%
6,CCCN1CCC(Nc2cc(OC)cc(OC)c2)CC1,inactive: 3.1%
7,c1ccc(CN2CCC(Nc3ccccc3)CC2)cc1,inactive: 1.22%
8,N#CC1(Nc2ccccc2)CCN(CCc2ccccc2)CC1,inactive: 0.07%
9,CCN1CCC(Nc2ccc(Cl)cc2)CC1,inactive: -0.78%
10,O=C(NCC1(N2CCCCC2)CCCCC1)c1cccc([N+](=O)[O-])c1,inactive: -1.64%
11,O=C(NCC1(N2CCCCC2)CCCCC1)c1ccc(OC(F)F)cc1,inactive: 0.59%
12,COc1cc(C(=O)NCC2(N3CCCCC3)CCCCC2)ccc1OC(F)F,inactive: 0.82%
13,O=C(NCC1(N2CCOCC2)CCCCC1)c1cc(=O)[nH]c2ccccc12,inactive: 6.01%
14,CN1CCN(CCOC(=O)C(O)(c2ccccc2)c2ccccc2)CC1,inactive: -0.59%
15,COc1ccc(NC2CCN(C(=O)OC(C)(C)C)CC2)cc1,inactive: 5.66%
16,O=C(NCC1(N2CCCCC2)CCCCC1)c1cccc(C(F)(F)F)c1,inactive: 4.1%
17,O=C(NCC1(N2CCOCC2)CCCCC1)c1cc(F)c(F)cc1Cl,inactive: 1.97%
18,COc1cc(OC)c(C(=O)NCC2(N(C)C)CCCCC2)cc1OC,inactive: -1.45%
19,CC(C)c1ccc(NC2CCN(C(=O)OC(C)(C)C)CC2)cc1,inactive: 0.08%
20,CN(C)c1cccc(C(=O)NCC2(N3CCCCC3)CCCCC2)c1,inactive: 3.25%
21,COc1ccc(CN(CCCl)CCCl)cc1Cl,inactive: 0.97%

row,SMILES,activation
1,O=C(NCC1(N2CCCCC2)CCCCC1)c1cncc(Br)c1,inactive: 8.4%
2,CN1CCC(Nc2cccc(F)c2)CC1,inactive: 4.48%
3,CSc1ccccc1C(=O)NCC1(N2CCCCC2)CCCCC1,inactive: -3.24%
4,COc1ccc(C(=O)NCC2(N3CCCCC3)CCCCC2)c(OC)c1OC,inactive: -1.11%
5,CC(C)(C)OC(=O)N1CCC(N(C(=O)c2ccccc2)c2ccc(F)cc2)CC1,inactive: 2.91%
6,COc1ccc(C(=O)NCC2(N3CCCCC3)CCCCC2)cc1,inactive: -1.5%
7,O=C(NCC1(N2CCCCC2)CCCCC1)c1cccs1,inactive: -0.58%
8,O=C(NCC1(N2CCCCC2)CCCCC1)c1ccc(=O)[nH]c1,inactive: -1.02%
9,COc1ccc(Cl)cc1C(=O)NCC1(N2CCOCC2)CCCCC1,inactive: 4.12%
10,O=C(OC1CN2CCC1CC2)C1c2ccccc2Oc2ccccc21 (stereo not drawn),inactive: 0.84%
11,O=C(NCC1(N2CCCCC2)CCCCC1)c1ccc(Cl)s1,inactive: 0.64%
12,N#CC1(Nc2ccccc2)CCN(Cc2ccccc2)CC1,inactive: -0.08%
13,CCOC(=O)N1CCC(Nc2ccc(OC)cc2)CC1,inactive: -3.17%
14,Cc1cc(C)cc(N(C(=O)c2ccccc2)C2CCN(C(=O)OC(C)(C)C)CC2)c1,inactive: 1.16%
15,O=C(NCC1(N2CCCCC2)CCCCC1)c1ccc(Cl)nc1,inactive: 2.13%
16,O=C(NCC1(N2CCOCC2)CCCCC1)c1cc2ccccc2o1,inactive: 10.4%
17,COc1ccc(NC2CCN(CCc3ccccc3)CC2)c(OC)c1,inactive: 0.26%
18,O=C(NCC1(N2CCCCC2)CCCCC1)c1ccc(F)cc1,inactive: -0.36%
19,CCOc1ccc(C)cc1CN(CCCl)CCCl,inactive: 1.35%
20,Cc1ccc(OCC(C)C)c(CN(CCCl)CCCl)c1,inactive: 0.84%
21,CCOC(=O)N1CCC(Nc2cccc(C)c2)CC1,inactive: -3.4%

# Reference: PubChem BioAssay AID2796 (The Scripps Research Institute Molecular Screening Center, 2010)
